Experimental findings from patent publication US20210386704A1, “MDMA RESPONSE PREDICTION” (Universitätsspital Basel, priority 2020, published 2021) are described below.

This series in a line: Pooled analysis of ten placebo-controlled crossover studies: MDMA plasma concentration (AUC 0-6 h). As to conditions: oral 75 or 125 mg.

Consider `CNC(C)Cc1ccc2c(c1)OCO2` (racemic) [MDMA, (±)3,4-methylenedioxymethamphetamine], for which, for the setting “unadjusted linear mixed effects model (FIG. 1)”, the “MDMA plasma AUC over 6 hours, relation to dose of MDMA” value was “strongly and highly significantly correlated with the dose of MDMA”. Where the note is “unadjusted model (FIG. 1)”, the “MDMA plasma AUC over 6 hours, relation to CYP2D6 activity (genetic)” value was “inversely correlated with the CYP2D6 activity”; the “MDMA plasma AUC over 6 hours, relation to body weight” value is “strongly and highly significantly inversely correlated with the body weight”.
